Measured values from ChEMBL document CHEMBL4196169 (J Med Chem, 2018).
pIC50: −log10 of the molar value.

Amino acid sequences for entries named in this document (tags omitted).
UniProt P00519, whole entry: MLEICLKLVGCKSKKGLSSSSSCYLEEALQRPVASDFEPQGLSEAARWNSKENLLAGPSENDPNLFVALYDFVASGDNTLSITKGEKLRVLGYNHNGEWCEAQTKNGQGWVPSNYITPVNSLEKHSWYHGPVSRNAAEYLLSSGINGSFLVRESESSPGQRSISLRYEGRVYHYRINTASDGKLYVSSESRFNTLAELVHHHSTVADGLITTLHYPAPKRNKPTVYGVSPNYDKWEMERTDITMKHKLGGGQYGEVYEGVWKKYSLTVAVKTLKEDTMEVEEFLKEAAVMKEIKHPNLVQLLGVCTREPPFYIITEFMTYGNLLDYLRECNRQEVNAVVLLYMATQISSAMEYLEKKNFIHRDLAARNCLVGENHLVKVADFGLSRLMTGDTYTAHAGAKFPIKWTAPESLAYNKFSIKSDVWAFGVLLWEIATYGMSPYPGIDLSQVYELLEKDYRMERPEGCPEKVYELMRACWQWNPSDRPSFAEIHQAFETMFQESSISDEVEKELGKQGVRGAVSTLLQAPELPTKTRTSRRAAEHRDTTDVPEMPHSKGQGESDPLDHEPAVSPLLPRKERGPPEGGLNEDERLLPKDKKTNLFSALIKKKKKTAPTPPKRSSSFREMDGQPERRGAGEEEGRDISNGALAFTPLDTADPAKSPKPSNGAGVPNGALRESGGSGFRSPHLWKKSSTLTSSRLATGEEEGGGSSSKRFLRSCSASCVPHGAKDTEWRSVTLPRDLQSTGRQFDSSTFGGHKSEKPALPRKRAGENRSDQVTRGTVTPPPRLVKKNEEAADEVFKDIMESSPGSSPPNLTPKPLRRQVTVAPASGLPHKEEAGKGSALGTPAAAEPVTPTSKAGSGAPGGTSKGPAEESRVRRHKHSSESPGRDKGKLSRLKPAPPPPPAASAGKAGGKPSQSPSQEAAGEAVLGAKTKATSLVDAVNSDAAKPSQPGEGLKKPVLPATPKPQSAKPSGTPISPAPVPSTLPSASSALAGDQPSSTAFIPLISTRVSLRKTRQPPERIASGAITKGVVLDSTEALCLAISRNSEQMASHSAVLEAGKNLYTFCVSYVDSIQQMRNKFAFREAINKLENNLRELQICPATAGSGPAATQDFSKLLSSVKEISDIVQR

Tests used:
[1] = molecular target: T1, Tyrosine-protein kinase ABL1 (Homo sapiens, UniProt P00519); experiment: Inhibition of recombinant human c-ABL SH3/SH2/SH1 domain (46 to 515 residues) expressed in bacterial expression system using EAIYAAPFAKKK as substrate measured every 20 secs in presence of [gamma-32P]ATP
[2] = molecular target: T1, Tyrosine-protein kinase ABL1; experiment: Inhibition of recombinant human c-ABL SH1 domain (46 to 515 residues) expressed in bacterial expression system using EAIYAAPFAKKK as substrate measured every 20 secs in presence of [gamma-32P]ATP

pIC50 [1]: 7.77
pIC50 [2]: < 5.00
Structure (SMILES): O=C(NCCO)c1cccc(-c2cc(Nc3ccc(OC(F)(F)F)cc3)ncn2)c1
